The values below come from ChEMBL document CHEMBL2176940, “Discovery of ligands for ADP-ribosyltransferases via docking-based virtual screening” (J Med Chem, 2012).

The chains behind the UniProt entries cited, without tags or fusion partners.
UniProt Q460N5, whole entry: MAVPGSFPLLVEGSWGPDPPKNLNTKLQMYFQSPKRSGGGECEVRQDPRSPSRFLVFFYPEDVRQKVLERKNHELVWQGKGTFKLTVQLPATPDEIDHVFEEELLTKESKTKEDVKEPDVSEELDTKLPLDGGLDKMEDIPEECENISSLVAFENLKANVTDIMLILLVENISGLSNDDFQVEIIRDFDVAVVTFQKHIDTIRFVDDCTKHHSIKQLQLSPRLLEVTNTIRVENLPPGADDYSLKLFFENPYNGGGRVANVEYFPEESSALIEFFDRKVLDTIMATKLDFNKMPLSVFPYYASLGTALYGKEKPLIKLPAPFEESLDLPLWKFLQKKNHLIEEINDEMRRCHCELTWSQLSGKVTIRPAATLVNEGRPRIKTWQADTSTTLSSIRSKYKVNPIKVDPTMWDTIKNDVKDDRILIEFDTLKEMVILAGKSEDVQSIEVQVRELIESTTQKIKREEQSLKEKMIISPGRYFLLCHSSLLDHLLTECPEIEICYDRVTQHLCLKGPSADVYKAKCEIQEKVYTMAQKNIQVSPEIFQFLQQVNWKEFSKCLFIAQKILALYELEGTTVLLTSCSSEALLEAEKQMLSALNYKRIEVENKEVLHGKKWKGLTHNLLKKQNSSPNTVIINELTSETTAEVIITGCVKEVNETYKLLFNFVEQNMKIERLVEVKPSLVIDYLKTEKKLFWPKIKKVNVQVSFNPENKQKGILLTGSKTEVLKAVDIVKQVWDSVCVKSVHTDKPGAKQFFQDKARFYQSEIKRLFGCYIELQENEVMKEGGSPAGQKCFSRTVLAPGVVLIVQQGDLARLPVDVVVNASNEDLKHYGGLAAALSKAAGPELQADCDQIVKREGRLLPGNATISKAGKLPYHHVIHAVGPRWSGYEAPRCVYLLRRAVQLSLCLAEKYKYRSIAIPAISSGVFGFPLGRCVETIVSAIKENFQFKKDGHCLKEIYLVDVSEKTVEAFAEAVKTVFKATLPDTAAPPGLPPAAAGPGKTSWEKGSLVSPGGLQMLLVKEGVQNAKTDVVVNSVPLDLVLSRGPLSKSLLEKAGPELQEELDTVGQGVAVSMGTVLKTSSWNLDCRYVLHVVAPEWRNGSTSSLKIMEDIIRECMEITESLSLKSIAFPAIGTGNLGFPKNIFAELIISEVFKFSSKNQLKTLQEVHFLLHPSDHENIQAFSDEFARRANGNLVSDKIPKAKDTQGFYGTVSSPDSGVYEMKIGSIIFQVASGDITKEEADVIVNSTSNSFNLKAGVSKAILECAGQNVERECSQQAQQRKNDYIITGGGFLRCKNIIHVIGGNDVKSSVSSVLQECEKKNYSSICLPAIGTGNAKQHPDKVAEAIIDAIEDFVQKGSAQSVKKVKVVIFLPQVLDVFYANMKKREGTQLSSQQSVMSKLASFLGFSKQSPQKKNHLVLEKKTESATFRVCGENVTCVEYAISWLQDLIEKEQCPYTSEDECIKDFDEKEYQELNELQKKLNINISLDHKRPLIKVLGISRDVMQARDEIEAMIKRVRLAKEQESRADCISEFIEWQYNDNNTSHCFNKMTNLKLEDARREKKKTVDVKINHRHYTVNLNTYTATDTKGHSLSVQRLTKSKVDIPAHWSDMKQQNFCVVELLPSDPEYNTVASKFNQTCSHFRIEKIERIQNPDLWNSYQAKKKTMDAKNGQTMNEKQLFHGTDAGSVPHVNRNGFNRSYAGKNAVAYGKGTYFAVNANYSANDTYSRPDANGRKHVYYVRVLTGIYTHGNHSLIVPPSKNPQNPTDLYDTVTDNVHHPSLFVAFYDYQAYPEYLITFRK

The structures appear in SMILES notation.

Assay [1] concerns the target Protein mono-ADP-ribosyltransferase PARP14 (Homo sapiens) (UniProt Q460N5).
For assay [2], the target named is T1, Protein mono-ADP-ribosyltransferase PARP15 (Homo sapiens) (UniProt Q460N3).
T1 sequence (whole entry): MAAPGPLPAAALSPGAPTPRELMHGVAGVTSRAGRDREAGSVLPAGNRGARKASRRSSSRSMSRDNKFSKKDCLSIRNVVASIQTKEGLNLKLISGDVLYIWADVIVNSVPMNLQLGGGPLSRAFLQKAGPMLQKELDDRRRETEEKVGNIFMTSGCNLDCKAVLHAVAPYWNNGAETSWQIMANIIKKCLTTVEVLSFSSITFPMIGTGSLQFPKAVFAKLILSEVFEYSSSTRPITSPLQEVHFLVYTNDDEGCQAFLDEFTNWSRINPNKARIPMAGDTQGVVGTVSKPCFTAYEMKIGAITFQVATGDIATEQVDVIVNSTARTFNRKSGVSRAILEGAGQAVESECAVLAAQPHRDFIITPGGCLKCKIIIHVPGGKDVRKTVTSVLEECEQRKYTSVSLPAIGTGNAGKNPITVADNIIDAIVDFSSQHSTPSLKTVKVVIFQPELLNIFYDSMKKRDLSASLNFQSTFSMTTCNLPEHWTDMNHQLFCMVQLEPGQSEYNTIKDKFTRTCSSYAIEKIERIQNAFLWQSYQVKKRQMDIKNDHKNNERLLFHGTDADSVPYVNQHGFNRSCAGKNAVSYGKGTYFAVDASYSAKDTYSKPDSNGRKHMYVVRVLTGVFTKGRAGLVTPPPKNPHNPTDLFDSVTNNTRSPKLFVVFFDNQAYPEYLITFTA

Consider `Cc1cc(C)c2c(=O)[nH]c(SCC(=O)c3ccccc3)nc2n1`, for which the ΔTm (usually the shift of the melting midpoint relative to a reference) in assay [1] was 2.65 °C; in assay [2] it was -0.09 °C.

In the case of `CN1CCN(c2nc3c([nH]2)c(=O)n(C)c(=O)n3C)CC1`, the figures for the ΔTm in assay [1] and in assay [2] were 1.56 °C and 0.19 °C, respectively.

As to `Oc1ccccc1-c1n[nH]c(-c2ccccc2O)n1`, the ΔTm in assay [1] is 2.65 °C; in assay [2] it was -0.34 °C.

As for `CC1(C)Cc2ccccc2-c2nc(NN)nc(O)c21`, the ΔTm in assay [1] was 2.05 °C; in assay [2], 1.38 °C.

As for `N=C1NC(=O)/C(=C/c2ccc(O)c(Cl)c2)S1`, the ΔTm in assay [1] is 3.89 °C; in assay [2], -0.25 °C.

Turning to `Cn1c(=O)c2[nH]c(NN=C3C(=O)NC(=O)NC3=O)nc2n(C)c1=O`, the ΔTm was 2.12 °C in assay [1] and -0.08 °C in assay [2].

Regarding `Cn1c(=O)c2[nH]c(NCCc3ccc(Cl)cc3)nc2n(C)c1=O`, the ΔTm in assay [1] amounted to 3.01 °C; in assay [2], 0.66 °C.

As for `NC(=O)c1cccc(N2C(=O)c3ccccc3C2=O)c1`, the ΔTm amounted to 2.1 °C in assay [1] and 0.06 °C in assay [2].

With `COc1ccc(CCNc2nc3c([nH]2)c(=O)n(C)c(=O)n3C)cc1`, the ΔTm in assay [1] stood at 2.62 °C; in assay [2], 1.09 °C.

For the molecule `Cc1sc2nc(SCC(=O)c3ccc(O)c(O)c3)[nH]c(=O)c2c1C`, the ΔTm came to 1.63 °C in assay [1] and 0.33 °C in assay [2].

On to `O=C(Nc1nnc(CSCc2ccccc2)s1)c1ccc(F)cc1`, for which the ΔTm is 1.66 °C in assay [1] and 0.36 °C in assay [2].

Take `COc1ccc(-c2cc3ncnc(O)c3s2)cc1`: the ΔTm was determined as 1.11 °C in assay [1] and 1.49 °C in assay [2].

Consider `O=c1[nH]cnc2c1sc1nc(-c3ccccc3)ccc12`, for which the results for the thermal shift (ΔTm) in assay [1] and in assay [2] were 0.65 °C and 1.51 °C, respectively.

As for `Cc1ccc(SCCNc2nc3c([nH]2)c(=O)n(C)c(=O)n3C)cc1`, the ΔTm in assay [1] came to 2.11 °C; in assay [2] it was 0.09 °C.

Turning to `O=C(CSc1ncn[nH]1)c1ccc(O)c(O)c1`, the ΔTm in assay [1] is 2.28 °C; in assay [2], -0.05 °C.
